Molecular target: PI3K-δ (Homo sapiens, UniProt O00329)
Experiment: Whole blood assay, p-Akt S473 in LPS-stimulated monocytes
Assay type: cell-based
Parameters: from tissue; host or cells: whole blood; LPS-stimulated monocytes (gated by flow cytometry)
Details: inhibition of p-Akt in LPS-stimulated monocytes, read-out: PI3Kδ IC50

Protein sequences, listed by entry. Tags and fused reporters are not part of them. Lines headed by an entry give the natural chain unless they say otherwise; changes in a name come on top.
UniProt O00329: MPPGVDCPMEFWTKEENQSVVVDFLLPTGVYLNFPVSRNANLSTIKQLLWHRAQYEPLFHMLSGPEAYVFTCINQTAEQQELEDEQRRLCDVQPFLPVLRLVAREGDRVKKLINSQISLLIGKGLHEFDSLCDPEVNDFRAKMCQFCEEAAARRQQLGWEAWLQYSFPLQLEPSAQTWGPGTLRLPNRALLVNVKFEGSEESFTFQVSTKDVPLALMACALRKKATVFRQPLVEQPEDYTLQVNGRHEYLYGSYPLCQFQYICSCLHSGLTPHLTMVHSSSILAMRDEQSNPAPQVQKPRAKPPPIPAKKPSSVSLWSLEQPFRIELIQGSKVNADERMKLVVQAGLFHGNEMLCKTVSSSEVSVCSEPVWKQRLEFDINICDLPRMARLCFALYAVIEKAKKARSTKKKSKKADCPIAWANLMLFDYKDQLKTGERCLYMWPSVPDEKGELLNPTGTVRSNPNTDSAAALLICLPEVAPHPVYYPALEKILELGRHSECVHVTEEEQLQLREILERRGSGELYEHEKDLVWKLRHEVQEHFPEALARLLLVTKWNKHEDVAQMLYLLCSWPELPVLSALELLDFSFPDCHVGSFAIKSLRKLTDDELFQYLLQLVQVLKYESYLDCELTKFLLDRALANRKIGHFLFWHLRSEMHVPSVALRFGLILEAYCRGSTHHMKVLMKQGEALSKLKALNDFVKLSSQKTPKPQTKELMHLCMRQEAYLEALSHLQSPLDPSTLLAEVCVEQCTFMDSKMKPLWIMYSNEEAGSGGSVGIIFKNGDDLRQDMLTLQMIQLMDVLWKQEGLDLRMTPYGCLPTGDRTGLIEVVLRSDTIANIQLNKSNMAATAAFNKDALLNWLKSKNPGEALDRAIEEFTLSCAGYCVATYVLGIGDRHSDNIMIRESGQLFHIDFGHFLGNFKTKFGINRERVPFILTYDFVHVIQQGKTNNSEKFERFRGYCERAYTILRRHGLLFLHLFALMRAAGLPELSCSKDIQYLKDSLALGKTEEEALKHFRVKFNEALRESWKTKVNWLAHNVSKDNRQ

- IC50: 12 ± 0.5 µM
SMILES: C[C@H](NC(=O)c1c(N)nn2cccnc12)c1cc2cccc(C#Cc3cnn(C)c3)c2c(=O)n1-c1ccccc1 [IPI-549, 2-amino-N-[(1S)-1-[8-[2-(1-methylpyrazol-4-yl)ethynyl]-1-oxo-2-phenylisoquinolin-3-yl]ethyl]pyrazolo[1,5-a]pyrimidine-3-carboxamide]

From patent US20220387491A1, “METHODS OF MAKING CELLULAR THERAPIES” (Secura Bio, Inc., priority 2019, published 2022)
